# Reference: patent publication US20220119493A1, “IL-7R-ALPHA BINDING COMPOUNDS” (MEDIKINE, INC., priority 2020, published 2022)
# Protein sequences, listed by entry. Tags and fused reporters are not part of them. Residues count along the entry.
# UniProt P16871, 21-459: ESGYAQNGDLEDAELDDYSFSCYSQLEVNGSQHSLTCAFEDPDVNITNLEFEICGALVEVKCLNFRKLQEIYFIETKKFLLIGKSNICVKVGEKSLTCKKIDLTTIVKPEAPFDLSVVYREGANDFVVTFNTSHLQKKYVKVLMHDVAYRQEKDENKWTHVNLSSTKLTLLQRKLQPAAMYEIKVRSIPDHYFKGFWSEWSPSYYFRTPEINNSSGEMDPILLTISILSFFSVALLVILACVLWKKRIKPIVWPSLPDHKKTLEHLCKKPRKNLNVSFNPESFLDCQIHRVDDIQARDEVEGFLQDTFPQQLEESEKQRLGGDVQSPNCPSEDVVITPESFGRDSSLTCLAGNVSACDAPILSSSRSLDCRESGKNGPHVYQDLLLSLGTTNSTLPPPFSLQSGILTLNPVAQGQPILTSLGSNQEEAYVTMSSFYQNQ
# UniProt P31785, 23-369: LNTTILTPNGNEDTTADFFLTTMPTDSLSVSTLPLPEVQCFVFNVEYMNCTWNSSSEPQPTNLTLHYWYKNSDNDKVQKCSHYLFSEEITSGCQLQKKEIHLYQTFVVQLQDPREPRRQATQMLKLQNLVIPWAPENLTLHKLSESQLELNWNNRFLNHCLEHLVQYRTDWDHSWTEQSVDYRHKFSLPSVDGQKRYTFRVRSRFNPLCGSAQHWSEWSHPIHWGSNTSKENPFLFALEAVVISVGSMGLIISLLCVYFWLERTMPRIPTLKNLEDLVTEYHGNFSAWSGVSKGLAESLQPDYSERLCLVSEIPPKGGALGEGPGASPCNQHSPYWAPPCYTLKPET
# pEC50: −log10 of the molar value.
# Experiments:
# [1] = biological target: T1, IL-7R (Homo sapiens, UniProt P16871+P31785); assay: TF1-7Rα pSTAT5 assay; type: cell-based; conditions: TF-1-7Rα cells, STAT5 phosphorylation; hIL-7 comparator
# T1 construct: human primary immune cells, hPBMCs, collected from individual donors; host or cells: human primary PBMCs from individual donors
# [2] = biological target: T1, IL-7R; assay: pSTAT5 assay in resting PBMCs; type: cell-based
substance,measurement,setting,value
"hIL-7: human interleukin-7, the natural cytokine, comparator in the functional assays",pEC50,[1],~9.70
same,pEC50,[2],~5.15
